How the values were obtained:
[1] = system: BaF3 expressing FIG-ROS(S); assay: MTS assay, growth of BaF3 cells expressing FIG-ROS(S); conditions: same concentration of each, 0-1.0 uM, FIG. 21A/21B
[2] = system: BaF3 expressing FIG-ROS(L); assay: MTS assay, growth of BaF3 cells expressing FIG-ROS(L); conditions: same concentration of each, 0-1.0 uM, FIG. 21A/21B

In the case of `C[C@@H](Oc1cc(-c2cnn(C3CCNCC3)c2)cnc1N)c1c(Cl)ccc(F)c1Cl` [crizotinib], the “sensitivity of cellular growth, TAE-684 compared with crizotinib” value [1] is reported as “more sensitive to TAE-684 than to crizotinib” and the “sensitivity of cellular growth, TAE-684 compared with crizotinib” value [2] is reported as “more sensitive to TAE-684 than to crizotinib”.
